Values quoted from earlier work in patent publication US20210316003A1 (Immunomedics, Inc., priority 2020, published 2021).

Tested on: patients with metastatic urothelial cancer (mUC)
Conditions: 35 mUC patients, 10 mg/kg; cited from earlier work

Substance: sacituzumab govitecan
- Safety profile: no greater than or equal to grade 3 neuropathy, no interstitial lung disease and no treatment related deaths
